Measurements: patent US11691963B2, “6-heteroaryloxy benzimidazoles and azabenzimidazoles as JAK2 inhibitors” (Ajax Therapeutics, Inc., priority 2020, dated 2023)

Amino acid sequences for entries named in this document (tags omitted). Residues count along the entry.
UniProt O60674, 849-1124 Y1007F/Y1008F: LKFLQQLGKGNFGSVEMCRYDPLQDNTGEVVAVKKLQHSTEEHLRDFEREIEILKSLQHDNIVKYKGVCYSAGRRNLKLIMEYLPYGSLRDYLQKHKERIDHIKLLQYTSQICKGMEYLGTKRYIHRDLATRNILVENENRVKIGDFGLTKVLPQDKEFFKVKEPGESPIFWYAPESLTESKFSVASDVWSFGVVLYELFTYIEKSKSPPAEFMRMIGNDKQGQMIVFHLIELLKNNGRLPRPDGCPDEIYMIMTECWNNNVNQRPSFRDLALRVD

What follows are molecules tested against JAK2 (JH1domain-catalytic, Y1007F,Y1008F) kinase (Homo sapiens (Human), UniProt O60674, Y1007F/Y1008F). Details: read-out: JAK2 Kd.

SMILES | Kd
CC(=O)Nc1cc(Oc2ccc3nc(Nc4cc(N5CCC5)cn(C(C)C)c4=O)n(C)c3c2)ccn1 [Example I-83, N-(4-((2-((5-(azetidin-1-yl)-1-isopropyl-2-oxo-1,2-dihydropyridin-3-yl)amino)-1-methyl-1H-benzo[d]imidazol-6-yl)oxy)pyridin-2-yl)acetamide] | > 5000 nM
CC(=O)Nc1cc(Oc2ccc3nc(Oc4cc(C5CC5)cn(C(C)C)c4=O)n(C)c3c2)ccn1 [Example I-90, N-(4-((2-((5-cyclopropyl-1-isopropyl-2-oxo-1,2-dihydropyridin-3-yl)oxy)-1-methyl-1H-benzo[d]imidazol-6-yl)oxy)pyridin-2-yl)acetamide] | < 10 nM
CC(=O)Nc1cc(Oc2ccc3nc(Oc4cc(C5CC5)cn([C@H]5C[C@@H](O)C5)c4=O)n(C)c3c2)ccn1 [Example I-92, N-(4-((2-((5-cyclopropyl-1-((1s,3s)-3-hydroxycyclobutyl)-2-oxo-1,2-dihydropyridin-3-yl)oxy)-1-methyl-1H-benzo[d]imidazol-6-yl)oxy)pyridin-2-yl)acetamide] | 10 to 50 nM
CC(=O)Nc1cc(Oc2cnc3nc(Nc4cc(C(C)(C)C)n(C5CCN(CC(F)F)CC5)n4)n(C)c3c2)ccn1 [Example I-114, N-(4-((2-((5-(tert-butyl)-1-(1-(2,2-difluoroethyl)piperidin-4-yl)-1H-pyrazol-3-yl)amino)-1-methyl-1H-imidazo[4,5-b]pyridin-6-yl)oxy)pyridin-2-yl)acetamide] | < 10 nM
CC(=O)Nc1cc(Oc2cnc3nc(Nc4cc(C(F)(F)C(F)(F)F)n([C@@H]5CCOC5)n4)n(C)c3c2C)ccn1 [Example I-126, (R)—N-(4-((1,7-dimethyl-2-((5-(perfluoroethyl)-1-(tetrahydrofuran-3-yl)-1H-pyrazol-3-yl)amino)-1H-imidazo[4,5-b]pyridin-6-yl)oxy)pyridin-2-yl)acetamide] | < 10 nM
CC(=O)Nc1cc(Oc2cnc3nc(Nc4cc(C(C)(C)C)n(CC#N)n4)n(C)c3c2C)ccn1 [Example I-131, N-(4-((2-((5-(tert-butyl)-1-(cyanomethyl)-1H-pyrazol-3-yl)amino)-1,7-dimethyl-1H-imidazo[4,5-b]pyridin-6-yl)oxy)pyridin-2-yl)acetamide] | < 10 nM

Same assay, conditions: read-out: JAK2 Kd; JAK2 JH1 domain-catalytic, Y1007F,Y1008F; qPCR readout

SMILES | Kd
CC(=O)Nc1cc(Oc2ccc3nc(Nc4cc(C5CC5)cn([C@H]5C[C@@H](O)C5)c4=O)n(C)c3c2)ccn1 [Example I-73, N-(4-((2-((5-cyclopropyl-1-((1s,3s)-3-hydroxycyclobutyl)-2-oxo-1,2-dihydropyridin-3-yl)amino)-1-methyl-1H-benzo[d]imidazol-6-yl)oxy)pyridin-2-yl)acetamide] | < 10 nM
CC(=O)Nc1cc(Oc2ccc3nc(Nc4cc(C5CC5)cn([C@H]5C[C@H](C#N)C5)c4=O)n(C)c3c2)ccn1 [Example I-74, N-(4-((2-((1-((1r,3r)-3-cyanocyclobutyl)-5-cyclopropyl-2-oxo-1,2-dihydropyridin-3-yl)amino)-1-methyl-1H-benzo[d]imidazol-6-yl)oxy)pyridin-2-yl)acetamide] | 50 to 1000 nM
CC(=O)Nc1cc(Oc2ccc3nc(Nc4cc(-n5cccn5)cn(C(C)C)c4=O)n(C)c3c2)ccn1 [Example I-80, N-(4-((2-((1-isopropyl-2-oxo-5-(1H-pyrazol-1-yl)-1,2-dihydropyridin-3-yl)amino)-1-methyl-1H-benzo[d]imidazol-6-yl)oxy)pyridin-2-yl)acetamide] | < 10 nM
CC(=O)Nc1cc(Oc2ccc3nc(Nc4cc(-n5cccn5)cn(C(C)C)c4=O)n(C)c3n2)ccn1 [Example I-81, N-(4-((2-((1-isopropyl-2-oxo-5-(1H-pyrazol-1-yl)-1,2-dihydropyridin-3-yl)amino)-3-methyl-3H-imidazo[4,5-b]pyridin-5-yl)oxy)pyridin-2-yl)acetamide] | < 10 nM
CC(=O)Nc1cc(Oc2ccc3nc(Nc4cc(C5CC5)nn(C)c4=O)n(C)c3c2)ccn1 [Example I-84, N-(4-((2-((6-cyclopropyl-2-methyl-3-oxo-2,3-dihydropyridazin-4-yl)amino)-1-methyl-1H-benzo[d]imidazol-6-yl)oxy)pyridin-2-yl)acetamide] | < 10 nM
CC(=O)Nc1cc(Oc2ccc3nc(Nc4cc(C5CC5)nn(C(C)C)c4=O)n(C)c3c2)ccn1 [Example I-85, N-(4-((2-((6-cyclopropyl-2-isopropyl-3-oxo-2,3-dihydropyridazin-4-yl)amino)-1-methyl-1H-benzo[d]imidazol-6-yl)oxy)pyridin-2-yl)acetamide] | < 10 nM
CC(=O)Nc1cc(Oc2ccc3nc(Oc4cc(C5CC5)cn(C)c4=O)n(C)c3c2C#N)ccn1 [Example I-94, N-(4-((7-cyano-2-((5-cyclopropyl-1-methyl-2-oxo-1,2-dihydropyridin-3-yl)oxy)-1-methyl-1H-benzo[d]imidazol-6-yl)oxy)pyridin-2-yl)acetamide] | < 10 nM
CC(=O)Nc1cc(Oc2cnc3nc(Nc4cc(C5CC5)cn(C)c4=O)n(C)c3c2C)ccn1 [Example I-98, N-(4-((2-((5-cyclopropyl-1-methyl-2-oxo-1,2-dihydropyridin-3-yl)amino)-1,7-dimethyl-1H-imidazo[4,5-b]pyridin-6-yl)oxy)pyridin-2-yl)acetamide] | < 10 nM
CC(=O)Nc1cc(Oc2cnc3nc(Nc4cc(C(C)(C)C)n([C@@H]5CCOC5)n4)n(C)c3c2C)ccn1 [Example I-108, (R)—N-(4-((2-((5-(tert-butyl)-1-(tetrahydrofuran-3-yl)-1H-pyrazol-3-yl)amino)-1,7-dimethyl-1H-imidazo[4,5-b]pyridin-6-yl)oxy)pyridin-2-yl)acetamide] | < 10 nM
CC(=O)Nc1cc(Oc2cnc3nc(Nc4cc(C(C)(C)C)n([C@H]5CCOC5)n4)n(C)c3c2C)ccn1 [Example I-111, (S)—N-(4-((2-((5-(tert-butyl)-1-(tetrahydrofuran-3-yl)-1H-pyrazol-3-yl)amino)-1,7-dimethyl-1H-imidazo[4,5-b]pyridin-6-yl)oxy)pyridin-2-yl)acetamide] | < 10 nM
COCCC(=O)Nc1cc(Oc2cnc3nc(Nc4cc(C(C)(C)C)n([C@H]5CCOC5)n4)n(C)c3c2)ccn1 [Example I-119, (S)—N-(4-((2-((5-(tert-butyl)-1-(tetrahydrofuran-3-yl)-1H-pyrazol-3-yl)amino)-1-methyl-1H-imidazo[4,5-b]pyridin-6-yl)oxy)pyridin-2-yl)-3-methoxypropanamide] | < 10 nM
CC(=O)Nc1cc(Oc2cnc3nc(Nc4cc(C(C)(C)C)n(C[C@@H]5CCN(CCF)C5)n4)n(C)c3c2C)ccn1 [Example I-124, (R)—N-(4-((2-((5-(tert-butyl)-1-((1-(2-fluoroethyl)pyrrolidin-3-yl)methyl)-1H-pyrazol-3-yl)amino)-1,7-dimethyl-1H-imidazo[4,5-b]pyridin-6-yl)oxy)pyridin-2-yl)acetamide] | < 10 nM
CC(=O)Nc1cc(Oc2cnc3nc(Nc4cc(C(C)(C)C)n(C[C@H]5CCN(CCF)C5)n4)n(C)c3c2C)ccn1 [Example I-125, (S)—N-(4-((2-((5-(tert-butyl)-1-((1-(2-fluoroethyl)pyrrolidin-3-yl)methyl)-1H-pyrazol-3-yl)amino)-1,7-dimethyl-1H-imidazo[4,5-b]pyridin-6-yl)oxy)pyridin-2-yl)acetamide] | < 10 nM
CC(=O)Nc1cc(Oc2cnc3nc(Nc4cc(C(F)(F)C(F)(F)F)n([C@H]5CCOC5)n4)n(C)c3c2C)ccn1 [Example I-127, (S)—N-(4-((1,7-dimethyl-2-((5-(perfluoroethyl)-1-(tetrahydrofuran-3-yl)-1H-pyrazol-3-yl)amino)-1H-imidazo[4,5-b]pyridin-6-yl)oxy)pyridin-2-yl)acetamide] | < 10 nM
Cn1c(Nc2cc(C(F)(F)C(F)(F)F)n([C@@H]3CCOC3)n2)nc2ncc(Oc3ccnc(NC(=O)C4CC4)c3)cc21 [Example I-133, (R)—N-(4-((1-methyl-2-((5-(perfluoroethyl)-1-(tetrahydrofuran-3-yl)-1H-pyrazol-3-yl)amino)-1H-imidazo[4,5-b]pyridin-6-yl)oxy)pyridin-2-yl)cyclopropanecarboxamide] | < 10 nM
Cn1c(Nc2cc(C(F)(F)C(F)(F)F)n([C@H]3CCOC3)n2)nc2ncc(Oc3ccnc(NC(=O)C4CC4)c3)cc21 [Example I-134, (S)—N-(4-((1-methyl-2-((5-(perfluoroethyl)-1-(tetrahydrofuran-3-yl)-1H-pyrazol-3-yl)amino)-1H-imidazo[4,5-b]pyridin-6-yl)oxy)pyridin-2-yl)cyclopropanecarboxamide] | < 10 nM
Cn1c(Nc2cc(C(C)(C)C)n(CCC#N)n2)nc2ncc(Oc3ccnc(NC(=O)C4CC4)c3)cc21 [Example I-137, N-(4-((2-((5-(tert-butyl)-1-(2-cyanoethyl)-1H-pyrazol-3-yl)amino)-1-methyl-1H-imidazo[4,5-b]pyridin-6-yl)oxy)pyridin-2-yl)cyclopropanecarboxamide] | < 10 nM
CC(=O)Nc1cc(Oc2cnc3nc(Nc4nn([C@@H]5CCOC5)c(C(C)(C)C)c4F)n(C)c3c2)ccn1 [Example I-138, (R)—N-(4-((2-((5-(tert-butyl)-4-fluoro-1-(tetrahydrofuran-3-yl)-1H-pyrazol-3-yl)amino)-1-methyl-1H-imidazo[4,5-b]pyridin-6-yl)oxy)pyridin-2-yl)acetamide] | < 10 nM
CC(=O)Nc1cc(Oc2cnc3nc(Nc4nn([C@H]5CCOC5)c(C(C)(C)C)c4F)n(C)c3c2)ccn1 [Example I-139, (S)—N-(4-((2-((5-(tert-butyl)-4-fluoro-1-(tetrahydrofuran-3-yl)-1H-pyrazol-3-yl)amino)-1-methyl-1H-imidazo[4,5-b]pyridin-6-yl)oxy)pyridin-2-yl)acetamide] | < 10 nM
Cn1c(Nc2cc(C(C)(C)C)n(CC#N)n2)nc2ncc(Oc3ccnc(NC(=O)C4CC4)c3)cc21 [Example I-140, N-(4-((2-((5-(tert-butyl)-1-(cyanomethyl)-1H-pyrazol-3-yl)amino)-1-methyl-1H-imidazo[4,5-b]pyridin-6-yl)oxy)pyridin-2-yl)cyclopropanecarboxamide] | < 10 nM
CC(=O)Nc1cc(Oc2cnc3nc(Nc4cc(C(C)(C)C)n([C@@H]5CCOC5)n4)n(C)c3c2Cl)ccn1 [Example I-141, (R)—N-(4-((2-((5-(tert-butyl)-1-(tetrahydrofuran-3-yl)-1H-pyrazol-3-yl)amino)-7-chloro-1-methyl-1H-imidazo[4,5-b]pyridin-6-yl)oxy)pyridin-2-yl)acetamide] | < 10 nM
